The values that follow come from patent publication US5847088A, “Antibodies specific for platelet-activating factor acetylhydrolase” (ICOS Corporation, priority 1995, dated 1998).

The assay has as its system low and high density lipoproteins.

B1: PAF-AH: Recombinant human plasma platelet-activating factor acetylhydrolase (beginning at Ile42 of SEQ ID NO:8) expressed in E. coli (protein, UniProt Q13093 22-441, looked up)
Platelet-activating factor …: FDWQYINPVAHMKSSAWVNKIQVLMAAASFGQTKIPRGNGPYSVGCTDLMFDHTNKGTFLRLYYPSQDNDRLDTLWIPNKEYFWGLSKFLGTHWLMGNILRLLFGSMTTPANWNSPLRPGEKYPLVVFSHGLGAFRTLYSAIGIDLASHGFIVAAVEHRDRSASATYYFKDQSAAEIGDKSWLYLRTLKQEEETHIRNEQVRQRAKECSQALSLILDIDHGKPVKNALDLKFDMEQLKDSIDREKIAVIGHSFGGATVIQTLSEDQRFRCGIALDAWMFPLGDEVYSRIPQPLFFINSEYFQYPANIIKMKKCYSPDKERKMITIRGSVHQNFADFTFATGKIIGHMLKLKGDIDSNVAIDLSNKASLAFLQKHLGLHKDFDQWDCLIEGDDENLIPGTNINTTNQHIMLQNSSGIEKYN
Turning to B1, the association with lipoproteins entry is “associated with low and high density lipoproteins in the same manner as the native activity”.
